The experiment concerns Staphylococcus aureus. Nature of the experiment: Antibacterial activity against methicillin-resistant Staphylococcus aureus JCSC 4744 incubated overnight by CLSI protocol based microdilution assay. In kind it is functional. Background: Dilution methods test growth across graded concentrations, often in twofold steps.

As usually defined, the MIC is the smallest concentration in the dilution series that meets the test's criterion for growth inhibition.

The structures appear in SMILES notation. Values after ≈ are worked out from the molar mass of the structure shown.

`CC[C@H](C)[C@H](NC(=O)CN)C(=O)NCC(=O)N[C@@H](C)C(=O)N[C@H](C(=O)N[C@@H](CC(C)C)C(=O)N[C@@H](CCCCN)C(=O)N[C@H](C(=O)N[C@@H](CC(C)C)C(=O)N[C@H](C(=O)N[C@H](C(=O)NCC(=O)N[C@@H](CC(C)C)C(=O)N1CCC[C@H]1C(=O)N[C@@H](C)C(=O)N[C@@H](CC(C)C)C(=O)N[C@H](C(=O)N[C@@H](CO)C(=O)N[C@@H](Cc1c[nH]c2ccccc12)C(=O)N[C@H](C(=O)N[C@@H](CCCCN)C(=O)N[C@@H](CCCNC(=N)N)C(=O)N[C@@H](CCCCN)C(=O)N[C@@H](CCCNC(=N)N)C(=O)N[C@@H](CCC(N)=O)C(=O)N[C@@H](CCC(N)=O)C(N)=O)[C@@H](C)CC)[C@@H](C)CC)[C@@H](C)O)[C@@H](C)O)C(C)C)C(C)C` [MELITTIN] gave a minimal inhibitory concentration (MIC) of 1.25 µg/mL (≈ 0.439 µM).

These data come from ChEMBL document CHEMBL4334453, “Callistemonols A and B, Potent Antimicrobial Acylphloroglucinol Derivatives with Unusual Carbon Skeletons from Callistemon viminalis” (2019).
